This experiment concerns the target T1, plasma DP IV activity (Rattus norvegicus, UniProt P14740).
T1 construct: from tissue; host or cells: plasma of Wistar rats
The experiment can be described thus: DP IV inhibiting activity after intravasal and oral administration to Wistar rats. In kind it is in vivo. As to conditions: 100 mg/kg, oral.

Chains of the proteins cited; added tags and fusions are not shown. Residues count along the entry.
UniProt P14740, 37-767 limits assumed: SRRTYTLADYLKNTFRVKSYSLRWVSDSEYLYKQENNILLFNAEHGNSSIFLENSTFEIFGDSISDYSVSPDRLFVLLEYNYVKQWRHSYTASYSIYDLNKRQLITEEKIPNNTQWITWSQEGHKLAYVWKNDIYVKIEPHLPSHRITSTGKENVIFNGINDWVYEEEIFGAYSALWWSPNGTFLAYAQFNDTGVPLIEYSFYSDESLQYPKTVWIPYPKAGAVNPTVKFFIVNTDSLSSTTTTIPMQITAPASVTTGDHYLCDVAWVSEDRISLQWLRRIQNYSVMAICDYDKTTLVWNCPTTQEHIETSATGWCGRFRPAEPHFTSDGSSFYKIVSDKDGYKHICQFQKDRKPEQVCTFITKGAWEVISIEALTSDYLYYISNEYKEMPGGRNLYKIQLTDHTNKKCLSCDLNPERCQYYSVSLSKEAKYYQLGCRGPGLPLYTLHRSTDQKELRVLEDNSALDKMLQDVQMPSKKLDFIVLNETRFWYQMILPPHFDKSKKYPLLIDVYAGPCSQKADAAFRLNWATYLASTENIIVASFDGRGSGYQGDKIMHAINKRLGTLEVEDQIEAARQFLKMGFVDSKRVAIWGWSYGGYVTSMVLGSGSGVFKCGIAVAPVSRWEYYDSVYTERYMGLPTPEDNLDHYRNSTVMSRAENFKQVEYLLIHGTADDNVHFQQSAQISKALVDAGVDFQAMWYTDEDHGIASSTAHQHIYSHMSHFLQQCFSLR

Each structure is given as a SMILES string.

Two compounds from patent US7368421B2, “Use of dipeptidyl peptidase IV inhibitors in the treatment of multiple sclerosis” (Probiodrug AG, priority 2001, dated 2008) can be followed below.

With `CC[C@H](C)[C@H](N)C(=O)N1CCC[C@H]1C(=O)N[C@H](C(=O)O)[C@@H](C)CC` [Diprotin A, Ile-Pro-Ile, reference compound], the “in vivo DP IV-inhibition at tmax, p.o.” value is given as “no inhibition”.

For `CC(C)C[C@H](NC(=O)[C@@H]1CCCN1C(=O)[C@@H](N)C(C)C)C(=O)O` [Diprotin B, Val-Pro-Leu, reference compound], the “in vivo DP IV-inhibition at tmax, p.o.” value was “no inhibition”.
